Consider one compound from ChEMBL document CHEMBL1135618, “Design and pharmacology of N-[(3R)-1,2,3,4-tetrahydroisoquinolinium- 3-ylcarbonyl]-(1R)-1-(4-chlorobenzyl)- 2-[4-cyclohexyl-4-(1H-1,2,4-triazol- 1-ylmethyl)piperidin-1-yl]-2-oxoethylamine (1), a potent, selective, melanocortin subtype-4 receptor agonist” (J Med Chem, 2002).

By UniProt entry, the sequences of proteins in these tests, tags left out. Where a name states a change or a piece, a line headed by the entry shows the natural chain unless it says otherwise.
UniProt Q01726: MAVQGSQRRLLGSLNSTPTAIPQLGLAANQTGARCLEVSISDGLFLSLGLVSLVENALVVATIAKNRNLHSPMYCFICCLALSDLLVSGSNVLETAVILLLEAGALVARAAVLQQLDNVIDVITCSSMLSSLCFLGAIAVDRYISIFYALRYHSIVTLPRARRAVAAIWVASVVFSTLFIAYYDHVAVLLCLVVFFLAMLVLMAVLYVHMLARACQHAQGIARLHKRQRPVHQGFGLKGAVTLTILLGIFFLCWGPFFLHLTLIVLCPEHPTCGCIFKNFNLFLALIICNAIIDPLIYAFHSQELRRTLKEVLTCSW
UniProt P41968: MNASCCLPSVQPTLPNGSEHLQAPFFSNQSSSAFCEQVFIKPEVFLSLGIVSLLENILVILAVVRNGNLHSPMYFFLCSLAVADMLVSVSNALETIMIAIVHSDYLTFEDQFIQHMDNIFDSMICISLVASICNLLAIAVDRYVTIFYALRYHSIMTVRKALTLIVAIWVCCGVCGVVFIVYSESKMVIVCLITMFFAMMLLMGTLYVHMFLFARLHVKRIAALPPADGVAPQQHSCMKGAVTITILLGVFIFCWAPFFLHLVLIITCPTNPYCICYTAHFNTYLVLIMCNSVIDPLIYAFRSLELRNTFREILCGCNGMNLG

What is called IC50 is the concentration at which inhibition is half-maximal. A lower IC50 goes with greater potency in that assay. One may read the EC50 as the concentration at which the effect is half-maximal. A high value points to a less potent agent.

Test [1] has as its target T1, Melanocyte-stimulating hormone receptor (Homo sapiens, UniProt Q01726). As to the kind of experiment: Evaluated for binding affinity against human melanocortin 1 (hMC1R) receptor by displacing [125I]NDP-alpha-MSH radioligand expressed in CHO cells. It is filed as functional, cell-based.
In test [2] the target is T1, Melanocyte-stimulating hormone receptor. The test is described as follows: Functional activity as concentration at 50% maximum cAMP accumulation in human melanocortin 1 (MC1R) receptor. For orientation: cAMP levels reflect the balance of adenylyl cyclase and phosphodiesterase activity.
For test [3], the target named is T2, Melanocortin receptor 3 (Homo sapiens, UniProt P41968). As to the kind of experiment: Evaluated for Functional Activity at MC3R as effective concentration at 50% maximum CMP accumulation.
Test [4] has as its target T2, Melanocortin receptor 3. As to the kind of experiment: Evaluated for binding affinity against human Melanocortin-3 receptor (hMC3R) by displacing [125I]NDP-alpha-MSH radioligand expressed in CHO cells. The test is classed as cell-based.
The target in test [5] is T2, Melanocortin receptor 3. As to the kind of experiment: Functional activity as concentration at 50% maximum cAMP accumulation in human melanocortin 1 (MC3R) receptor.

As to `O=C(N[C@H](Cc1ccc(Cl)cc1)C(=O)N1CCC(Cn2cncn2)(C2CCCCC2)CC1)[C@H]1Cc2ccccc2CN1`, the half-maximal inhibitory concentration (IC50) in test [1] was found to be 2070 nM; in test [4], 761 nM. The results for the concentration giving a half-maximal response (EC50) in test [2], in test [3] and in test [5] were 2850 nM, 2490 nM and 2490 nM, respectively.
